What was measured:
Type in all cases: physicochemical
[1] = Solubility assessment, slurry and gravimetric method
Experimental: Solubility Assessment. About 50 mg of solid was slurried in 0.75 mL of various solvents for one day. The slurry was centrifuged and the clear solution was used for gravimetric method. Table 4.1 presents the solubility data measured using this method in various solvents. About 10% error in measurement is expected.

[2] = Study 5: 75 mg/mL Formula (VI) in WFI at various pH under ICH storage temperatures; settings: pH 4 samples; below 60° C. storage; after 14 days
Experimental: Study 5: 75 mg/mL Formula (VI) in WFI at Various pH under ICH Storage Temperatures.
It was noticeable from Study 2 that drug stability was dependent on the pH. The lower the pH, the greater the chemical stability. Thus in this study, the chemical stability of 75 mg/mL Formula (VI) in water was evaluated at the pH range at 4-6 under the ICH storage temperatures i.e. 2-8, 25 and 40° C. An accelerated 60° C. storage temperature was also accessed in order to compare and generate a pH-stability profile of drug in water.
75 mg/mL Formula (VI) IN WFI at Various pH under ICH Storage Temperatures.
Solution 1: pH 4.0: A 20 mL solution of 75 mg/mL Formula (VI) in WFI was prepared. […] The pH was measured and the solution was mixed at room temperature for 16-24 hours. […] The pH of the samples was then measured. […] A sample was removed from each container after 3, 7 and 14 days the pH measured.
Solution 2: pH 5.0 A 20 mL solution of 75 mg/mL Formula (VI) in WFI was prepared. […] The pH was measured and the solution was mixed at room temperature for 16-24 hours. […] The pH of the samples was then measured. […] A sample was removed from each container after 3, 7 and 14 days the pH measured.
Solution 3: pH 6.0 A 20 mL solution of 75 mg/mL Formula (VI) in WFI was prepared. […] The pH was measured and the solution was mixed at room temperature for 16-24 hours. […] The pH of the samples was then measured. […]

[3] = Study 2: 75 mg/mL Formula (VI) in WFI at pH 7.0, 14 days at 60° C.; settings: 75 mg/mL in water
Experimental: Study 2: 75 mg/mL Formula (VI) in WFI at pH 7.0 (14 days at 60° C.).
Formula (VI) was dissolved in WFI to a concentration of 75 mg/mL and gently mixed for 16-24 hours prior to adjusting the target pH 7.0 using either HCl or NaOH solution. The samples were filled in glass vials and capped with an air headspace. All samples were tested and evaluated for physicochemical stability under the storage conditions at 2-8 and 60° C. after 0, 3, 7 and 14 days.
Study 2 Protocol, 75 mg/mL Formula (VI) in WFI at pH 7.0 (14 days at 60° C.).
A 20 mL solution of 75 mg/mL Formula (VI) in WFI was prepared. About 10 g of WFI was placed in the container including a stir bar. […]
Solution #1: About 10.3 g of the 75 mg/mL Formula (VI) solution was transferred into a different container and mixed at room temperature for 16-24 hours. The pH was measured at approximately hourly intervals and at about 16 hours and 24 hours. […] The solution was filtered through a PVDF, 0.22 μm filter into a clean container and its pH measured.
Solution #2: The remaining 10.3 g of 75 mg/mL Formula (VI) solution in the original mixing container, was sparged with compressed air while mixing at room temperature. The pH was measured at 30 minutes then hourly thereafter for the 16-24 hour time period. […] The solution was filtered through a PVDF, 0.22 μm filter into clean container and the pH measured. […]

[4] = solvent Heptane, slurried one day
[5] = solvent Isopropanol:Water (98:2)
[6] = solvent Tert-butyl methyl ether

Solubility (mg/mL) 25° C. ([1]; solvent 1,4 dioxane): — (— = not soluble)
Solubility (mg/mL) 45° C. ([1]; solvent 1,4 dioxane): — (— = not soluble)
Solubility (mg/mL) 25° C. ([1]; solvent Acetone): — (— = not soluble)
Solubility (mg/mL) 45° C. ([1]; solvent Acetone): 3 mg/mL
Solubility (mg/mL) 25° C. ([1]; solvent Acetonitrile:water): >70 mg/mL
Solubility (mg/mL) 45° C. ([1]; solvent Acetonitrile:water): >70 mg/mL
Solubility (mg/mL) 25° C. ([1]; solvent Acetonitrile): >70 mg/mL
Solubility (mg/mL) 45° C. ([1]; solvent Acetonitrile): >70 mg/mL
Solubility (mg/mL) 25° C. ([1]; solvent Cyclohexane): <1 mg/mL
Solubility (mg/mL) 45° C. ([1]; solvent Cyclohexane): 3 mg/mL
Solubility (mg/mL) 25° C. ([1]; solvent Diethyl ether): 7 mg/mL
Solubility (mg/mL) 45° C. ([1]; solvent Diethyl ether): 10 mg/mL
Solubility (mg/mL) 25° C. ([1]; solvent Dimethylformamide): >70 mg/mL
Solubility (mg/mL) 45° C. ([1]; solvent Dimethylformamide): >70 mg/mL
Solubility (mg/mL) 25° C. ([1]; solvent Ethanol): >70 mg/mL
Solubility (mg/mL) 45° C. ([1]; solvent Ethanol): >70 mg/mL
Solubility (mg/mL) 25° C. ([1]; solvent Ethyl Acetate): 2 mg/mL
Solubility (mg/mL) 45° C. ([1]; solvent Ethyl Acetate): 4 mg/mL
Solubility (mg/mL) 25° C. [1, 4]: 3 mg/mL
Solubility (mg/mL) 45° C. [1, 4]: 5 mg/mL
Solubility (mg/mL) 25° C. [1, 5]: >70 mg/mL
Solubility (mg/mL) 45° C. [1, 5]: >70 mg/mL
Solubility (mg/mL) 25° C. ([1]; solvent Isopropanol): >70 mg/mL
Solubility (mg/mL) 45° C. ([1]; solvent Isopropanol): >70 mg/mL
Solubility (mg/mL) 25° C. ([1]; solvent Methanol): >70 mg/mL
Solubility (mg/mL) 45° C. ([1]; solvent Methanol): >70 mg/mL
Solubility (mg/mL) 25° C. ([1]; solvent Methyl ethyl ketone): 3 mg/mL
Solubility (mg/mL) 45° C. ([1]; solvent Methyl ethyl ketone): 5 mg/mL
Solubility (mg/mL) 25° C. [1, 6]: 3 mg/mL
Solubility (mg/mL) 45° C. [1, 6]: 6 mg/mL
Solubility (mg/mL) 25° C. ([1]; solvent Tetrahydrofuran): <1 mg/mL
Solubility (mg/mL) 45° C. ([1]; solvent Tetrahydrofuran): 10 mg/mL
Solubility (mg/mL) 25° C. ([1]; solvent Toluene): 6 mg/mL
Solubility (mg/mL) 45° C. ([1]; solvent Toluene): 4 mg/mL
Solubility (mg/mL) 25° C. ([1]; solvent Water): >70 mg/mL
Solubility (mg/mL) 45° C. ([1]; solvent Water): >70 mg/mL
pH shift [2]: ≤ 0.1 pH units
pH shift ([3]; air sparged samples): 1.5-2 pH units
pH shift ([3]; non-sparged sample): ~1 pH unit
Substance: [5,10,15,20-tetrakis(1,3-diethylimidazolium-2-yl)porphyrinato]manganese(III) chloride hydrate complex [Formula (VI)]
